In ChEMBL document CHEMBL4354845, “Discovery and Structure-Activity Relationships of Nociceptin Receptor Partial Agonists That Afford Symptom Ablation in Parkinson's Disease Models” (J Med Chem, 2020):

Experiments:
[1] = Efflux ratio of apparent permeability across basolateral to apical side to apical to basolateral side in human Caco2 cells by HPLC-MS/MS analysis; conditions: caco-2
[2] = Ratio of Cmax in Sprague-Dawley rat brain to Cmax in Sprague-Dawley rat plasma; conditions: strain Sprague-Dawley
[3] = Efflux ratio of apparent permeability across basolateral to apical side to apical to basolateral side in dog MDCK-MDR1 cells by HPLC-MS/MS analysis

Row | SMILES | Ratio [1] | Ratio [2] | Ratio [3]
1 | CC(C)[C@H]1CC[C@@H](N2CCC(N3CCc4ccccc43)CC2)CC1 | 0.8 | 6.73 | 1.3
2 | CC(C)[C@H]1CC[C@@H](N2CCC(n3cc(CCN)c4ccccc43)CC2)CC1.Cl.Cl | 1.5 | – | 37
